Source: patent US7767822B2, “Water-soluble tetrazolium salts” (Bayer Healthcare LLC, priority 2005, dated 2010)
Read-outs that look alike come from different tables or passages of the source.

Test: Solubility of tetrazolium salts in 0.2M phosphate buffer
Assay type: physicochemical

| Substance | Solubilility | Solubilility (0.2M phosphate buffer, pH ~7.5, room temperature) |
| --- | --- | --- |
| 5-Benzo[1,3 dioxol-5-yl]-3-[2-(3-trimethylammonium) propoxy-phenyl]-2-(6-methoxynapthylthiazol-2-yl)-2 H-tetrazolium bromo nitrite salt [Example 5] | 5 mM | – |
| 5-[4-(3-trimethylammonium)propoxy-3-methoxy-phenyl]-3-[2-(3-trimethylammonium) propoxy-phenyl]-2-(6-bromo-benzothiazol-2-yl)-2H-tetrazolium dibromo nitrite salt [Example 8] | – | 290 mM |
| 5-Benzo[1,3 dioxol-5-yl]-3-[2-(3-trimethylammonium) propoxy-phenyl]-2(benzothiazol-2-yl)-2 H-tetrazolium bromo nitrite salt [Example 4] | 167 mM | – |
